In PubChem BioAssay AID588795 (National Center for Advancing Translational Sciences (NCATS), 2011):
The entries are a selection whose mix differs from that of the whole data set. The source made the active and inactive calls. Calls follow the shape of the dose curve; as a rule, active = well fitted inhibition curve with a large enough effect; inconclusive = small, poorly fitted or top-dose-only effect; inactive = no such curve, though single readings can be large or run the other way. Entries that show only a call come without a potency.

By UniProt entry, the sequences of proteins in these tests, tags left out.
UniProt P39748, whole entry, looked up: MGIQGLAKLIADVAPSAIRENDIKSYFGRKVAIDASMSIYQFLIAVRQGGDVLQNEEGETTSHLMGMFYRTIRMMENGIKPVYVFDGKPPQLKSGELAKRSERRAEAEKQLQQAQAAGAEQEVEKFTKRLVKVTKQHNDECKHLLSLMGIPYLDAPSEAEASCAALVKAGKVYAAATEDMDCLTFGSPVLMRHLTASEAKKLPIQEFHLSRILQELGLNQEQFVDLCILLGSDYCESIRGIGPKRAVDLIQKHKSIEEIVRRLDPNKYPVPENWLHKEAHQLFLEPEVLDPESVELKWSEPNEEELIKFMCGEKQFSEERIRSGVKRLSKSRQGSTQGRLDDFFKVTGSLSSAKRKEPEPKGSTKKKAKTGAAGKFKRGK

molecular target: Flap endonuclease 1 (Homo sapiens) (UniProt P39748); assay: qHTS Assay for the Inhibitors of Human Flap endonuclease 1 (FEN1).; also: nearly all actives have a fitted effect of over 65% in size; details: Recombinant FEN1 flap cleavage, fluorescence, 15 min; series mostly up to 114 µM
Potency is read from the fitted curve at half-maximal effect.

For `NS(=O)(=O)c1cccc(NC(=O)COC(=O)C(O)(c2ccccc2)c2ccccc2)c1`, which Potency is on record?
The Potency was “inactive”.

For `O=P1(Nc2ccc(Br)cn2)COc2ccccc2OC1`, which Potency is on record?
The Potency was “inactive”.

For `O=[As](O)(c1cccs1)c1cccs1`, which Potency is on record?
Its Potency is “inactive”.

`Cc1ccc(OCC(=O)OC2CN3CCC2CC3)cc1` (stereo not given) was tested. Which Potency did it give?
The Potency was “inactive”.

For `CCOP(=O)(NC(=NC(C)c1ccccc1)NC(C)c1ccccc1)OCC` (stereo not given), which Potency is on record?
The Potency was “inactive”.

How did the Potency turn out when `CCC1=CC2Cc3nc4ccc(Cl)cc4c(N)c3C(C1)C2` (stereo not given) was run?
Its Potency is “inactive”.

How did the Potency turn out when `O=P1(Nc2ccccn2)COc2ccccc2OC1` was run?
The Potency was “inactive”.

How did the Potency turn out when `CN(CCCl)Cc1cc(Cl)c(NC2=NCCN2)c(Cl)c1` was run?
The Potency was “inactive”.

Which Potency does the source give for `CCOP(=O)(Nc1ccc(C)cn1)OCC` here?
The Potency was “inactive”.

How did the Potency turn out when `Clc1n[nH]nc1-c1nn[nH][15n]1` was run?
Its Potency is “inactive”.

Which Potency does the source give for `COc1ccccc1CNC(=O)COC(=O)C(O)(c1ccccc1)c1ccccc1` here?
Its Potency is “inactive”.

With `CN(C(=O)Cc1ccc(Cl)c(Cl)c1)[C@@H]1CCCC[C@H]1N1CCCC1` as the compound, how does the Potency read?
Its Potency is “inactive”.

How did the Potency turn out when `CC1(CBr)Cn2c(nc3ccccc3c2=O)S1` (stereo not given) was run?
Its Potency is “inactive”.

With `O=C(OC1CN2CCC1CC2)c1ccc(Cl)cc1` (stereo not given) as the compound, how does the Potency read?
The Potency was “inactive”.

For `COc1cc(C(=O)NCC2(N3CCOCC3)CCCCC2)cc(Cl)c1OC(C)C`, which Potency is on record?
Its Potency is “inactive”.

`O=[As](O)(O)c1cccnc1` was tested. Which Potency did it give?
The Potency was “inactive”.

For `O=[As](O)(c1cccc(O)c1)c1cccc(O)c1`, which Potency is on record?
The Potency was “inactive”.

With `Cc1cccc(OCC(=O)OC2CN3CCC2CC3)c1` (stereo not given) as the compound, how does the Potency read?
The Potency was “inactive”.

How did the Potency turn out when `Nc1cccc2c([As](=O)(O)O)cccc12` was run?
The Potency was “inactive”.

For `Cc1ccc(NCCc2c([N+](=O)[O-])cc([N+](=O)[O-])cc2[N+](=O)[O-])cc1`, which Potency is on record?
The Potency was “inactive”.

`CCCOP(=S)(Nc1nc(N)cc(=O)[nH]1)OCCC` was tested. Which Potency did it give?
The Potency was “inactive”.

How did the Potency turn out when `CCOP(=O)(Nc1cccc2ccccc12)OCC` was run?
Its Potency is “inactive”.

For `COc1cc(C2NCCC3(OCCO3)C2(C)C)cc(OC)c1OC` (stereo not given), which Potency is on record?
Its Potency is “inactive”.

With `O=P(Nc1nccs1)(c1ccccc1)c1nc2ccccc2s1` (stereo not given) as the compound, how does the Potency read?
The Potency was “inactive”.

How did the Potency turn out when `O=P(Nc1nccs1)(Oc1ccccc1)Oc1ccccc1` was run?
Its Potency is “inactive”.

For `CCOP1(=S)c2c(C)nn(CCC#N)c2N=C(c2ccccc2F)N1C` (stereo not given), which Potency is on record?
The Potency was “inactive”.

For `CS(=O)(=O)c1cc([N+](=O)[O-])c2no[n+]([O-])c2c1`, which Potency is on record?
The Potency was active: 44.7 µM.

`O=C(O)COc1ccc([As](=O)(O)O)cc1[N+](=O)[O-]` was tested. Which Potency did it give?
The Potency was “inactive”.

`Nc1ccccc1[As](=O)(O)c1ccccc1` was tested. Which Potency did it give?
Its Potency is “inactive”.

How did the Potency turn out when `NC(=O)Nc1ccc([As](=O)(O)O)cc1` was run?
The Potency was “inactive”.

Which Potency does the source give for `CN(C(=O)Cc1ccccc1)[C@@H]1CC[C@]2(CCCO2)C[C@H]1N1CCCC1` here?
The Potency was “inactive”.

How did the Potency turn out when `CCOP1(=S)c2c(C)nn(CCC#N)c2N=C(c2ccc(F)cc2)N1C` (stereo not given) was run?
Its Potency is “inactive”.

`N#CCCN(C(=O)COC(=O)C(O)(c1ccccc1)c1ccccc1)c1ccc(F)cc1` was tested. Which Potency did it give?
Its Potency is “inactive”.

For `CN(C(=O)Cc1ccc(Cl)c(Cl)c1)[C@H]1CC[C@@]2(CCCO2)C[C@@H]1N1CCCC1`, which Potency is on record?
Its Potency is “inactive”.

How did the Potency turn out when `CN(C)C(=O)c1cc([N+](=O)[O-])cc2c1-c1c(cc([N+](=O)[O-])cc1[N+](=O)[O-])C2=O` was run?
The Potency was “inactive”.
